Values of other authors as cited in US7179597B2, “Genetic diagnosis for QT prolongation related adverse drug reactions” (Georgetown University, priority 2000, dated 2007).

Conditions: Table 2; drug labeling; cited from earlier work

In the case of Octreotide, the QT is listed as “Yes”.
